Target: human SSTR-1 (Homo sapiens, UniProt P30872)
Experiment: Somatostatin receptor binding assay, hSSTR-1

The chains behind the UniProt entries cited, without tags or fusion partners. Where a name states a change or a piece, a line headed by the entry shows the natural chain unless it says otherwise.
UniProt P30872: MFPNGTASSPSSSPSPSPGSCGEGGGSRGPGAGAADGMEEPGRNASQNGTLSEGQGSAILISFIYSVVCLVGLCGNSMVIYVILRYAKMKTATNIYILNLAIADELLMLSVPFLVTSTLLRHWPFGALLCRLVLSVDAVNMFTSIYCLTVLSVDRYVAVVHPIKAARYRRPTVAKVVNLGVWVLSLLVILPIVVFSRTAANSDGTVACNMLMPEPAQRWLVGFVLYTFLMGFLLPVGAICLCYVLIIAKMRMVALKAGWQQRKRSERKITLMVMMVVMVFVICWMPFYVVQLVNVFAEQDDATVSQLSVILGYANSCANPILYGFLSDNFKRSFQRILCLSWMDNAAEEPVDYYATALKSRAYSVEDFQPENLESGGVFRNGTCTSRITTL

`CC[C@@H]1NC(=O)[C@H](CCCCN)NC(=O)[C@@H](Cc2c[nH]c3ccccc23)NC(=O)[C@H](Cc2ccc(O)cc2)NC(=O)[C@@H](NC(=O)[C@@H](Cc2ccccc2)NS(=O)(=O)CCN2CCN(CCO)CC2)CSSC[C@@H](C(=O)N[C@H](C(N)=O)[C@@H](C)O)NC1=O` [Example 121] gave a Ki of 6.02 µM.
